The source made the active and inactive calls. No cut-off for these calls is given here.
Target: T1R1/T1R3 (Homo sapiens) (UniProt Q7RTX0+Q7RTX1)
Test: Activation of human T1R1/T1R3
Type: protein-complex assay

By UniProt entry, the sequences of proteins in these tests, tags left out. Where a name states a change or a piece, a line headed by the entry shows the natural chain unless it says otherwise.
UniProt Q7RTX0: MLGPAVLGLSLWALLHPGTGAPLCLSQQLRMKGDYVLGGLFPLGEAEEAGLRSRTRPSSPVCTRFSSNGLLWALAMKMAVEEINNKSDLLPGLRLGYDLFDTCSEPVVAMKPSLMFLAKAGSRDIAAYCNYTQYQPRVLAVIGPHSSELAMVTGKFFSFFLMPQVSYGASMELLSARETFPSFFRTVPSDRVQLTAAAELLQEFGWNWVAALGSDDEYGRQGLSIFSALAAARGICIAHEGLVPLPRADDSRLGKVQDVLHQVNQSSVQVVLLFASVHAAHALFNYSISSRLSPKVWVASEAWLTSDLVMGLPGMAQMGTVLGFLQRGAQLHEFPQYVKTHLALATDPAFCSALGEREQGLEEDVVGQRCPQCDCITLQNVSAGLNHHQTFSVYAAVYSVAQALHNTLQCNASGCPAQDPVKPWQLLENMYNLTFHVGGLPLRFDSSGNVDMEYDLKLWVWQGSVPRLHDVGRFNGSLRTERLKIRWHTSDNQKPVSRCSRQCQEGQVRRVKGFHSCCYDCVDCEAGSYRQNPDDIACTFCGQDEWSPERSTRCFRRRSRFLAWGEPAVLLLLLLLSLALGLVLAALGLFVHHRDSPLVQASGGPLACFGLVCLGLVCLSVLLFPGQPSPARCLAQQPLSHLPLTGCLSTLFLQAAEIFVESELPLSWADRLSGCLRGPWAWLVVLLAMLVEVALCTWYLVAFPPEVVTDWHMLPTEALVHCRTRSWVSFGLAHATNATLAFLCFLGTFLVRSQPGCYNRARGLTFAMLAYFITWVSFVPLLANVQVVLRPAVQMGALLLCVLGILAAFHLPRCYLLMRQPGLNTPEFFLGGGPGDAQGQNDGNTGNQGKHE
UniProt Q7RTX1: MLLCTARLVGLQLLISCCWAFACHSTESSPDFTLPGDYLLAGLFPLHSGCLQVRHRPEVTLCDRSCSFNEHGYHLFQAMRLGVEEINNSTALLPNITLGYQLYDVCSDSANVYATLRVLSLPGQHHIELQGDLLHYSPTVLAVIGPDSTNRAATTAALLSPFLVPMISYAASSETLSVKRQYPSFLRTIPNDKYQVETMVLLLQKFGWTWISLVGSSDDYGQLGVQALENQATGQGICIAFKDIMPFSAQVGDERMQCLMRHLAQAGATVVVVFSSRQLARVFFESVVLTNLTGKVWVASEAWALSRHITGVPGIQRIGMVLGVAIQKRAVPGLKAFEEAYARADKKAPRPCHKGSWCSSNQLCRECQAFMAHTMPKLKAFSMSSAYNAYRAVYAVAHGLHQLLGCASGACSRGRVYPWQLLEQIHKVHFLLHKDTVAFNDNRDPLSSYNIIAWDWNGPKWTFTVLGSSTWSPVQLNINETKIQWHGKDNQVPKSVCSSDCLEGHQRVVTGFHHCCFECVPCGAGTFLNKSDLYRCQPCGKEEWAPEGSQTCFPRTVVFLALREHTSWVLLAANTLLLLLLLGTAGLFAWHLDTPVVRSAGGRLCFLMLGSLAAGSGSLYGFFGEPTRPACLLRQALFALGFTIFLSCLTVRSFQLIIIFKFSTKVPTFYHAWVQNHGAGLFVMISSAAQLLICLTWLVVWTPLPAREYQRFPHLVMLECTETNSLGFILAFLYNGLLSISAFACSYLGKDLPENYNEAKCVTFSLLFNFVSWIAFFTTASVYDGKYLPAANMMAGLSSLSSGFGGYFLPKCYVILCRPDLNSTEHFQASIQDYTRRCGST

COC(=O)[C@H](Cc1ccccc1)NC(=O)[C@@H](N)CC(=O)O was tested, and the Activity was “inactive”.

Reference: ChEMBL document CHEMBL3714709, “T1R hetero-oligomeric taste receptors, cell lines that express said receptors, and taste compounds” (2008)
